Assay results: patent US6436639B1, “Bak promoter expression system” (Tanox, Inc., priority 1997, dated 2002)

How the values were obtained:
Type in all cases: cell-based, human
bak intron 1 ISRE = tested on: bak intron 1 ISRE
Protocol: (§1) To examine the transcription factors that specifically bind promoter and neighboring elements of the bak gene and presumably mediate INF-γ and poly (I-C) induction of bak mRNA synthesis, electrophoretic mobility shift and supershift assays were performed. […] These oligonucleotides were radioactively end-labelled with ^32P-ATP and T4 polynucleotide kinase, and allowed to interact with nuclear extracts prepared from HT-29 cells as described (Bomsztyk, K. et al. J. Biol. Chem. 265:9413 (1990)). The cells were pre-treated with INF-α, -β, or -γ, or poly (I-C) as described in Example 5. Binding reactions were carried out in a total volume of 20 μl, containing nuclear extract (10 μg total protein), labeled DNA (50,000 cpm), varying amounts of unlabeled competitor oligonucleotide and poly (I-C) (1 μg) in EMSA buffer (5 mM KCl, 10 mM Tris-HCl (pH 7.5), 1 mM dithiothreitol, 1 mM EDTA, 4% glycerol) for 10 minutes at room temperature. Gel supershift assays were performed as described above, except that antibodies specific for various promoter-binding proteins were added after the initial binding reaction and the mixture was incubated overnight at 4° C. The samples were then fractionated by electrophoresis on a 4% polyacrylamide gel at 10 mA at 4° C. in 0.3×TBE running buffer. The gel was then dried and exposed to x-ray film at -70° C. overnight.

bak promoter GAS = tested on: bak promoter GAS
Protocol: as §1

bak mRNA = assay: Northern blot analysis of bak mRNA expression in HT-29 cells; conditions: 16 hours treatment, IFN-γ 200 units/ml, poly (I-C) 25 μg/ml, IFN-α 200 units/ml, IFN-β 500 units/ml
Protocol: To examine bak gene expression, Northern blot analyses were performed with HT-29 and Hela cells following IFN treatment. Bak mRNA expression following poly (I-C) treatment was also analyzed. […] (poly (I-C)) is a synthetic double-stranded RNA (dsRNA) that mimics viral infection. It is a potent inducer of interferon and activator of interferon-induced, dsRNA-dependent enzymes such as PKR and 2′,5′ oligoadenylate synthetase. These two enzymes are involved in maintaining the anti-viral state (see Jacobs and Langland (1996) Virology 219:339-349). […]

## IFN-β: type I interferon
Bak intron 1 ISRE
  IRF protein binding to Bak ISRE (complexes C1, C2, C3): did not induce C1 and C3 formation
Bak promoter GAS
  specific protein binding to Bak GAS (complex C1): not observed
Bak mRNA
  bak mRNA expression: weakly increase
